Patent US20050137807A1, “Method of visualization of the ADME properties of chemical substances” (priority 2003, published 2005)

By UniProt entry, the sequences of proteins in these tests, tags left out. Residues count along the entry.
UniProt P02768, 25-609: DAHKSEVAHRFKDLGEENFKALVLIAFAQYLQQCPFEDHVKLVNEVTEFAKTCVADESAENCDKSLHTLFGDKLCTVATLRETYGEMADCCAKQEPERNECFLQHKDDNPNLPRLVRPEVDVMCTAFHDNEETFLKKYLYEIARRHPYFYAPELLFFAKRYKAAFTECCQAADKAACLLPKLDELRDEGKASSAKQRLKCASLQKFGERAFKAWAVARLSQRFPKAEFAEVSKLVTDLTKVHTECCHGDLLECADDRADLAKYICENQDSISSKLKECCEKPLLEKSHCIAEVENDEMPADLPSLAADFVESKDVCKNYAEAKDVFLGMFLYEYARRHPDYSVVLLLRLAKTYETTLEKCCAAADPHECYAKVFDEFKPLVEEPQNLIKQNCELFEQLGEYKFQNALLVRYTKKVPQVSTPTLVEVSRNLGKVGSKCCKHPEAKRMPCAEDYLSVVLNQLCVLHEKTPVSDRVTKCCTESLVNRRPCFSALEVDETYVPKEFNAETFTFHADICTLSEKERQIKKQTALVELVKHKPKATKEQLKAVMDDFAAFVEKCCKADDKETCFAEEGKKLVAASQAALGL

Molecular target: human serum albumin (Homo sapiens, UniProt P02768)
Test: binding constant to human serum albumin (TRANSIL technology)
Conditions: log binding constant to human serum albumin

Gentamicin
LogHSA: −2.469
